Data on 1 compound can be found in US20120070411A1, “SUBSTITUTED NUCLEOTIDE ANALOGS” (Alios BioPharma, Inc., priority 2010, published 2012).

The subject of the test is HCV genotype 1b HCV replicon harbored in Huh7 cells. The experiment in a line: Combination testing with compound A10 in HCV replicon (CalcuSyn CI and MacSynergy II synergy volume). Particulars: combination of compound A10 with the listed compound; MacSynergy II, Bliss independence; 25-100 synergistic, >100 strongly synergistic. Format: cell-based. As to the method: Two or more test compounds were tested in combination with each other using an HCV genotype 1b HCV replicon harbored in Huh7 cells with a stable luciferase (LUC) reporter. Cells were cultured under standard conditions in Dulbecco's modified Eagle's medium (DMEM; Mediatech Inc, Herndon, Va.) containing 10% heat-inactivated fetal bovine serum (FBS; Mediatech Inc, Herndon, Va.) 2 mM L-glutamine, and nonessential amino acids (JRH Biosciences). HCV replicon cells were plated in a 96-well plate at a density of 10^4 cells per well in DMEM with 10% FBS. […] The cells were incubated with no compound as a control, with the test compounds, or the combination of compounds for 72 h. The direct effects of the combination of the test compounds were examined using a luciferase (LUC) based reporter as determined by the Bright-Glo Luciferase Assay (Promega, Madison, Wis.). Dose-response curves were determined for individual compounds and fixed ratio combinations of two or more test compounds.
The effects of test compound combinations were evaluated by two separate methods. In the Loewe additivity model, the experimental replicon data was analyzed by using CalcuSyn (Biosoft, Ferguson, Mo.), a computer program based on the method of Chou and Talalay. The program uses the experimental data to calculate a combination index (CI) value for each experimental combination tested. […]

On to `CS(=O)(=O)Nc1ccc2c(c1)S(=O)(=O)N=C(C1=C(O)[C@@H]3[C@H]4CC[C@H](C4)[C@@H]3N(Cc3ccc(F)cc3)C1=O)N2` [ANA-598], for which the “Synergy Volume” value is given as 32 μM^2%.
